Source: PMC4374901 (Organic & biomolecular chemistry, 2012)

By UniProt entry, the sequences of proteins in these tests, tags left out.
UniProt P51681, whole entry: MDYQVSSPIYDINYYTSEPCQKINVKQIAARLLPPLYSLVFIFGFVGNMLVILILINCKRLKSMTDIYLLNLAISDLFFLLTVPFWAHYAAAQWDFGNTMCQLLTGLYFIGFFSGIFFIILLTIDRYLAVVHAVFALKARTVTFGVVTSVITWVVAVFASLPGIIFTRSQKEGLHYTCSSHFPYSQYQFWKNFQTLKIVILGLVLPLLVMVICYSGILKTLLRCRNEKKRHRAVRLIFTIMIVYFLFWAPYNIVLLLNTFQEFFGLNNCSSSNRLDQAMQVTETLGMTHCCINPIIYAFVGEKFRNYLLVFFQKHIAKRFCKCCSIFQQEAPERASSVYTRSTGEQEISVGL

Molecular target: CCR5 (Homo sapiens, UniProt P51681)
Experiment: Calcium mobilization assay in CCR5/MOLT-4 cells
Format: cell-based
Conditions: read-out: calcium flux inhibition IC50, antagonism, RANTES (CCL5) stimulation

**Q.** Maraviroc was tested. Which IC50 did it give?
**A.** 1.57 ± 0.32 nM
